Here are results for 1 molecule from patent US20190010158A1, “ANTITUMOR EFFECT POTENTIATOR COMPRISING PYRROLOPYRIMIDINE COMPOUND” (TAIHO PHARMACEUTICAL CO., LTD, priority 2015, published 2019).

Common to all, as to format: cell-based
Assay [1] deals with human prostate cancer LNCAP.FGC cell line. Kind of assay: Cell growth inhibition 2, LNCaP.FGC. The procedure: (§1) The ability of test compounds to inhibit cell growth was determined by quantifying ATP from viable cells using a CellTiter-Glo™ Luminescent Cell Viability Assay (#G7573, produced by Promega, Inc.). The human acute T lymphoblastic leukemia CCRF-CEM cell lines (distributed by Dainippon Pharmaceutical Co., Ltd. (currently Sumitomo Dainippon Pharma Co., Ltd.)) were seeded in a 96-well plate (#165305, produced by Thermo Scientific Nunc) at a concentration of 1,000 cells/100 μL medium per well. The cells were cultured in a 5% CO2 incubator at 37° C. overnight, and the test compound was added thereto, followed by culture for another 72 hours. […] The luminescence intensity was measured using a microplate reader (EnSpire™ Multimode Plate Reader, produced by PerkinElmer Japan Co., Ltd.), and used as an index of the number of viable cells in each well. The cell growth inhibition rate (%) achieved by the compound was determined by the following equation (equation B) by using the luminescence intensity of a drug untreated group (control) as a control. […]
(§2) T: Luminescence intensity in a well to which a test compound was added C: Luminescence intensity in a well to which a test substance was not added
(§3) The ability of test compounds to inhibit cell growth was determined as in Test Example 2, except that the cell lines, the culture plate, and the number of cells seeded per well were as shown in Table 18. […]

Assay [2] relates to human breast cancer MDA-MB-453 cell line. Kind of assay: Cell growth inhibition 2, MDA-MB-453. The procedure:
as §1, §2, §3

The subject of assay [3] is human acute leukemia MV-4-11 cell line. Kind of assay: Cell growth inhibition 2, MV-4-11. Conditions: MV4-11. The procedure:
as §1, §2, §3

Assay [4] relates to human acute T lymphoblastic leukemia CCRF-CEM cell lines. Kind of assay: Cell growth inhibition 1 (CellTiter-Glo). Conditions: culture with test compound 72 hours. (In general: In ATP-based viability assays light output follows the ATP content of the culture.)
Assay [5] has as its system human skin cancer A-431 cell line. Kind of assay: Cell growth inhibition 2, A-431. The procedure: as §1, §2, §3
For assay [6], the system named is human osteo- and soft tissue sarcoma SJCRH30 cell line. Kind of assay: Cell growth inhibition 2, SJCRH30. How it is done:
as §1, §2, §3

The subject of assay [7] is human colon cancer HCT116 cell line. Kind of assay: Cell growth inhibition 2, HCT116. Particulars: HCT-116. The procedure: as §1, §2, §3
Assay [8] deals with human lung cancer A-427 cell line. Kind of assay: Cell growth inhibition 2, A-427. How it is done:
as §1, §2, §3

The subject of assay [9] is human pancreatic cancer Capan-1 cell line. Kind of assay: Cell growth inhibition 2, Capan-1. How it is done: as §1, §2, §3
The test system of assay [10] is human diffuse large B-cell lymphoma DB cell line. Kind of assay: Cell growth inhibition 2, DB. The procedure:
as §1, §2, §3

Structures are written as SMILES.

Regarding `CCOc1cccc(F)c1C#Cc1cn([C@@H]2O[C@H](CNS(N)(=O)=O)[C@@H](O)[C@H]2O)c2ncnc(N)c12` [Reference Example 55, 4-Amino-7-[(2R,3R,4S,5R)-3,4-dihydroxy-5-[(sulfamoylamino)methyl]tetrahydrofuran-2-yl]-5-[2-(2-ethoxy-6-fluoro-phenyl)ethynyl]pyrrolo[2,3-d]pyrimidine], the IC50 in [1] was 260 nM; in [2], 94 nM; in [3] it was 6.7 nM; in assay [4], 2.2 nM; in assay [5], 480 nM; in [6] it was 550 nM. For the same molecule, the IC50 in assay [7] amounted to 12 nM; in assay [8], 7 nM; in assay [9], 870 nM; in assay [10], 61 nM.

A word on the IC50: it is the concentration needed to halve the response being measured.
